The text below walks through data of ChEMBL document CHEMBL5625255, “Discovery of a novel series of potent carbonic anhydrase inhibitors with selective affinity for μ Opioid receptor for Safer and long-lasting analgesia” (2023).

Chains of the proteins cited; added tags and fusions are not shown. Residues count along the entry.
UniProt P00915, 2-261 limits assumed: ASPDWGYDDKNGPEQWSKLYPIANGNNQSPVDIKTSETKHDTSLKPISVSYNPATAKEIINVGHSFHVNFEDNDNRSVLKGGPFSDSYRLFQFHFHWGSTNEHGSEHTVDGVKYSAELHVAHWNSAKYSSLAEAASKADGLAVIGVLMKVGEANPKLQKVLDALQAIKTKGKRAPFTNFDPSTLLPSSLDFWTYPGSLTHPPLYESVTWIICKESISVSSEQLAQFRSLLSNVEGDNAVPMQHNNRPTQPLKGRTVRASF
UniProt P22748, 19-284 limits assumed: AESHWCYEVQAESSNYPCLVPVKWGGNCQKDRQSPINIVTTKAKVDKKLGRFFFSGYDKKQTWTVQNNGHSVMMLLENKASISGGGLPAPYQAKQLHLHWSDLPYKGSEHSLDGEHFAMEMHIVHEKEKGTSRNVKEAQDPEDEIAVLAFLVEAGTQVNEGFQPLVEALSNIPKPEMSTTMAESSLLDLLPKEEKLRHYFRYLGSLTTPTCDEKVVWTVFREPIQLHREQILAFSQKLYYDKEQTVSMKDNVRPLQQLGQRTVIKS
UniProt P35218, 39-305 limits assumed: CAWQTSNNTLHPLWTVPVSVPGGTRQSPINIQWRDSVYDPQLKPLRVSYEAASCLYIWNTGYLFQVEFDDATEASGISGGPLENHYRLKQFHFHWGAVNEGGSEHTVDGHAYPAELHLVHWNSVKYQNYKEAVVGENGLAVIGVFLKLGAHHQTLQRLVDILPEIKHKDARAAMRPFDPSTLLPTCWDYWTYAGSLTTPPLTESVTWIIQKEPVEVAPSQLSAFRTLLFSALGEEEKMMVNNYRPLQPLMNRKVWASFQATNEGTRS
UniProt P43166, whole entry: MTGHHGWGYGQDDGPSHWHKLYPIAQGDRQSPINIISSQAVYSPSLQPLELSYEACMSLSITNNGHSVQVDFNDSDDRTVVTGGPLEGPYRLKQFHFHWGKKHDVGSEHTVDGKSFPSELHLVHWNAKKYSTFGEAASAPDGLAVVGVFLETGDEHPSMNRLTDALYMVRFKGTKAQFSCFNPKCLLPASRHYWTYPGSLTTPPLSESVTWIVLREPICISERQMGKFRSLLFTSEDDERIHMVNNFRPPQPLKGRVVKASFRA
UniProt O43570, 25-354 limits assumed: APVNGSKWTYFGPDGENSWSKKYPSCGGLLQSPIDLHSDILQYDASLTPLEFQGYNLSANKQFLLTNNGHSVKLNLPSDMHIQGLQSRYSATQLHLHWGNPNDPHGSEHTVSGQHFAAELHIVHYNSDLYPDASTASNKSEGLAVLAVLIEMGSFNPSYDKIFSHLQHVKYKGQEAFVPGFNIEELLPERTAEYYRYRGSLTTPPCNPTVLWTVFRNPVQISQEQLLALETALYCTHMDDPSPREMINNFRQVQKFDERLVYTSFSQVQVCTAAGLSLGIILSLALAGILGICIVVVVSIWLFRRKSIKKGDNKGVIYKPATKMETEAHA
UniProt Q8N1Q1, whole entry: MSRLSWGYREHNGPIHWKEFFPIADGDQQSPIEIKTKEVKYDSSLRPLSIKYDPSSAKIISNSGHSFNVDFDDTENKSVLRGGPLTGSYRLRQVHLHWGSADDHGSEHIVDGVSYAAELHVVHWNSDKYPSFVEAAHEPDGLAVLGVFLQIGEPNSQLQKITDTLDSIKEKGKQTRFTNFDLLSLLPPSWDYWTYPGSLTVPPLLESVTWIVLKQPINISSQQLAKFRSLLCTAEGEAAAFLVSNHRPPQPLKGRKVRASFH
UniProt Q9ULX7, 16-337 limits assumed: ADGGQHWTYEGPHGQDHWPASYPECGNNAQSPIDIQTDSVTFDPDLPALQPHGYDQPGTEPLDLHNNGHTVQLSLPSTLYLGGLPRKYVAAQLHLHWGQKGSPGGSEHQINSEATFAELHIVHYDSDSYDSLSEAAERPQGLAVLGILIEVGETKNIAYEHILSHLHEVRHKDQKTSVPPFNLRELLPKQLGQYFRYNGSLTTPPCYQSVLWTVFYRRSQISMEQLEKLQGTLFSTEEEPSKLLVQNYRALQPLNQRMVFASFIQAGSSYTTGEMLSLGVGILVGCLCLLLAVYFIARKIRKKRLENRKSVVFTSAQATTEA

Assay [1] has as its target Carbonic anhydrase 1 (Homo sapiens, UniProt P00915). In words: Inhibition of recombinant human CA-I incubated for 15 mins by stop-flow method.
For assay [2], the target named is Carbonic anhydrase 2 (Homo sapiens, UniProt P00918). Nature of the assay: Inhibition of recombinant human CA-II incubated for 15 mins by stop-flow method.
For assay [3], the target named is Carbonic anhydrase 4 (Homo sapiens, UniProt P22748). In words: Inhibition of recombinant human CA-IV incubated for 15 mins by stop-flow method.
Assay [4] concerns the target Carbonic anhydrase 5A, mitochondrial (Homo sapiens, UniProt P35218). In words: Inhibition of recombinant human CA-VA incubated for 15 mins by stop-flow method.
Assay [5] deals with Carbonic anhydrase 7 (Homo sapiens, UniProt P43166). Nature of the assay: Inhibition of recombinant human CA-VII incubated for 15 mins by stop-flow method.
Assay [6] concerns the target Carbonic anhydrase 9 (Homo sapiens, UniProt Q16790). In words: Inhibition of recombinant human CA-IX incubated for 15 mins by stop-flow method.
For assay [7], the target named is Carbonic anhydrase 12 (Homo sapiens, UniProt O43570). In words: Inhibition of recombinant human CA-XII incubated for 15 mins by stop-flow method.
Assay [8] addresses Carbonic anhydrase 13 (Homo sapiens, UniProt Q8N1Q1). Nature of the assay: Inhibition of recombinant human CA-XIII incubated for 15 mins by stop-flow method.
Assay [9] has as its target Carbonic anhydrase 14 (Homo sapiens, UniProt Q9ULX7). In words: Inhibition of recombinant human CA-XIV incubated for 15 mins by stop-flow method.

As a reminder, the Ki is the equilibrium dissociation constant of an inhibitor or competing ligand from its target. On to `N#CC1(Nc2ccccc2)CCN(CCc2ccc(S(N)(=O)=O)cc2)CC1`, for which the Ki in assay [1] stood at 4.6 nM; in assay [2] it was 0.7 nM; in [3], 9340 nM; in assay [4] it was 75 nM; in assay [5], 33.7 nM; in [6] it was 4.8 nM. Moreover, the values for the Ki in assay [7], in assay [8] and in assay [9] were 7.8 nM, 3470 nM and 91.5 nM, respectively.
Consider `Cc1ccc(NC2(C#N)CCN(CCc3ccc(S(N)(=O)=O)cc3)CC2)cc1`, for which the Ki in assay [2] was 8.5 nM; in assay [3], 9170 nM; in assay [5], 9.4 nM; in [7], 48.9 nM; in assay [8], 3370 nM; in assay [9], 60.2 nM.
Regarding `NS(=O)(=O)c1ccc(CCN2CCC(Nc3ccccc3)CC2)cc1`, the inhibitory constant (Ki) in assay [1] was 66.5 nM; in assay [2], 18.3 nM; in assay [3] it was 7590 nM; in assay [4] it was 76.6 nM; in assay [5], 9.5 nM; in [6], 16.6 nM. Further, the figures for the Ki in assay [7], in assay [8] and in [9] were 5.6 nM, 63.7 nM and 38.1 nM, respectively.
